Results on 5 compounds are retold here after patent US20080312292A1, “Antipruritics” (priority 2002, published 2008).

Sequences of proteins named here, by UniProt entry; tags and fusion partners are left off.
UniProt P34972, whole entry: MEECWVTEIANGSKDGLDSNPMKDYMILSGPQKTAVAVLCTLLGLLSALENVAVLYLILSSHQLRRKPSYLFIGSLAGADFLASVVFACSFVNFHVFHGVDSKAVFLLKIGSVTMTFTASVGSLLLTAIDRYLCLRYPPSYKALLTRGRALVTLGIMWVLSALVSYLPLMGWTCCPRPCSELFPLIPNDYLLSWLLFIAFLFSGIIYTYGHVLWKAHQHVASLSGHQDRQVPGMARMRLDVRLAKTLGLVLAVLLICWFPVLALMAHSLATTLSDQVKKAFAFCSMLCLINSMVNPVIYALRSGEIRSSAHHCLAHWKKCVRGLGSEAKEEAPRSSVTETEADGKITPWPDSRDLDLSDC
UniProt P21554, whole entry: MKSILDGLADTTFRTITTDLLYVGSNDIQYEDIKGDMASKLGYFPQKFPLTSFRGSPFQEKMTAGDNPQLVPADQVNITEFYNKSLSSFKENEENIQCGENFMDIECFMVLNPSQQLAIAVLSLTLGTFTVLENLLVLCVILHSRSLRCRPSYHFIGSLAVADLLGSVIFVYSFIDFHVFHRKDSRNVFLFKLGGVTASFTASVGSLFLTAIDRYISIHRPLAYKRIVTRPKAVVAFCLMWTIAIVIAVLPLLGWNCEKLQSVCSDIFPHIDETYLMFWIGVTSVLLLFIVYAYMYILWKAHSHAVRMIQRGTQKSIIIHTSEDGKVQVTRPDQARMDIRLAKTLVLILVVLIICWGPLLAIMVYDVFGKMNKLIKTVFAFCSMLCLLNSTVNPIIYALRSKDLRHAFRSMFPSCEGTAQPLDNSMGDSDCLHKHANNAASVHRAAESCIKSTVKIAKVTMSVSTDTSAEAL

Experiment [1] has as its target Human cannabinoid receptor CB2R (Homo sapiens, UniProt P34972). In words: Human cannabinoid receptor binding inhibition, [3H]CP55940, CB2R. The note with it: read-out: Ki CB2 receptor; membranes of CB2R-expressing CHO cells, [3H]CP55940 0.5 nM.
In experiment [2] the target is Human cannabinoid receptor CB1R (Homo sapiens, UniProt P21554). In words: Human cannabinoid receptor binding inhibition, [3H]CP55940, CB1R. The note with it: read-out: Ki CB1 receptor; membranes of CB1R-expressing CHO cells, [3H]CP55940 0.5 nM.
Experiment [3] has as its target human CB2R (Homo sapiens, UniProt P34972). In words: Cannabinoid receptor-mediated suppression of forskolin-stimulated cAMP synthesis, CB2R. It is filed as cell-based. The following applies: read-out: CB2 receptor IC50, CHO cells expressing human CB2R.

In the case of `CCSc1ccccc1N=C1SCC(C)(C)CN1C(=S)SC`, in experiment [1], the Ki (commonly the dissociation constant of the complex between target and ligand, obtained from inhibition or displacement) amounted to 43 nM.

Take `CCCCn1c2c(cc(C(=O)NCCc3ccccc3)c1=O)CCCCC2`: the values for the inhibitory constant (Ki) in experiment [2] and in experiment [1] were 482 nM and 6 nM, respectively. In addition, the IC50 (usually the concentration at which inhibition is half-maximal) in experiment [3] was determined as 4.2 nM.

Regarding `CCCCn1c2c(cc(C(=O)NCc3ccccc3)c1=O)CCCCCCCC2`, the inhibition constant (Ki) in experiment [2] worked out at 124 nM; in experiment [1], 2.5 nM. For the same compound, in experiment [3], the half-maximal inhibitory concentration (IC50) is 2.3 nM.

On to `CCCCn1c2c(cc(C(=O)NCc3ccccc3)c1=O)CCCCC2`, for which the Ki in experiment [2] stood at 254 nM; in experiment [1], 6 nM. The concentration for half-maximal inhibition (IC50) in experiment [3] is 7.9 nM.

Consider `CCCCn1c2c(cc(C(=O)NCCc3ccc(F)cc3)c1=O)CCCCC2`, for which the Ki in experiment [2] worked out at 551 nM; in experiment [1], 8 nM. Besides, in experiment [3], the IC50 was 4.3 nM.
